# Literature values, collected in patent publication US20040197321A1, “Composition and method to prevent or reduce diarrhea and steatorrhea in HIV patients” (priority 2002, published 2004).
# Settings: excipients, Table V; cited from earlier work
substance,measurement,value
D-α-tocopheryl polyethylene glycol 1000 succinate [TPGS],Aqueous Solubility,200 mg/mL
